Measured values taken from patent publication US5877293, “CDR grafted anti-CEA antibodies and their production” (Celltech Therapeutics Limited, dated 1999).

Target: Carcinoembryonic Antigen (CEA) (Homo sapiens (Human), UniProt P06731)
Assay: competition RIA against 125I-labelled murine or chimeric A5B7 IgG1 on CEA coated beads
Description: The competition RIA for anti-CEA activity involved competition of a series of ^125I-labelled murine or chimeric A5B7 IgG1 with humanised IgG or fragments thereof from culture supernatant samples for binding to CEA coated beads. Binding activity was determined by measuring bead associated radioactivity. The assay was calibrated by competition with standard preparations of chimeric or murine A5B7 IgG1 and plotting % bound cpm versus antibody concentration. Interpolated apparent A5B7 concentration of unknowns was normalised by dividing by the assembly assay result to give a specific activity. Finally specific activity was expressed as % relative potency by comparison to that obtained from a positive control chimeric A5B7 culture supernatant produced during the same experiment.
The relative potency of purified murine and chimeric A5B7 Fab' and F(ab')_2 fragments and murine IgG was investigated using the competition RIA. In addition, the direct binding ELISA was run in competition mode, by coincubation of the test specimen with murine A5B7 IgG1, for confirmation of relative potency.
The relative potencies of murine and chimeric IgGs and fragments were measured by the competition RIA. All the bivalent species—including the chimeric DFM—gave potency equivalent to that of murine A5B7 IgG. […]

- % Relative Potency: 104%
B1: A5B7 chimeric DFM (Di Fab' maleimide) (other)
VH: EVKLVESGGGLVQPGGSLRLSCATSGFTFTDYYMNWVRQPPGKALEWLGFIGNKANGYTTEYSASVKGRFTISRDKSQSILYLQMNTLRAEDSATYYCTRDRGLRFYFDYWGQGTTLTVSS
VL: QTVLSQSPAILSASPGEKVTMTCRASSSVTYIHWYQQKPGSSPKSWIYATSNLASGVPARFSGSGSGTSYSLTISRVEAEDAATYYCQHWSSKPPTFGGGTKLEIKR
modifications: hinge thiol cross-linked with 1,6-bismaleimidohexane
